ChEMBL document CHEMBL2057141, “Imidazolopiperazines: lead optimization of the second-generation antimalarial agents” (J Med Chem, 2012)

The chains behind the UniProt entries cited, without tags or fusion partners.
UniProt P05177, whole entry: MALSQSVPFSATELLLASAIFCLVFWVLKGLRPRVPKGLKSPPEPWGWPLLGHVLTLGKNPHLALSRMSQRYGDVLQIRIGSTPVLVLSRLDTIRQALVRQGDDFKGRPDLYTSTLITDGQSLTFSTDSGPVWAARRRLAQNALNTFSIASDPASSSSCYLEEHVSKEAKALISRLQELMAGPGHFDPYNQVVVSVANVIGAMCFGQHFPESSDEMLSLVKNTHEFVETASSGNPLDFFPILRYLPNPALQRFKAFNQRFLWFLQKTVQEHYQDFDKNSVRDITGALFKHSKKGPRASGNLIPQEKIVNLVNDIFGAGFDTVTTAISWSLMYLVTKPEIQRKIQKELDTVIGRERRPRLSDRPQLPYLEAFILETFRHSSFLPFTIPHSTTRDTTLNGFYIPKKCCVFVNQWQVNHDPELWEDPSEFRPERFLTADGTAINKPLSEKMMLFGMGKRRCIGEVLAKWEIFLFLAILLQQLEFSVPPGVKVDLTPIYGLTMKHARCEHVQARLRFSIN
UniProt P11712, whole entry: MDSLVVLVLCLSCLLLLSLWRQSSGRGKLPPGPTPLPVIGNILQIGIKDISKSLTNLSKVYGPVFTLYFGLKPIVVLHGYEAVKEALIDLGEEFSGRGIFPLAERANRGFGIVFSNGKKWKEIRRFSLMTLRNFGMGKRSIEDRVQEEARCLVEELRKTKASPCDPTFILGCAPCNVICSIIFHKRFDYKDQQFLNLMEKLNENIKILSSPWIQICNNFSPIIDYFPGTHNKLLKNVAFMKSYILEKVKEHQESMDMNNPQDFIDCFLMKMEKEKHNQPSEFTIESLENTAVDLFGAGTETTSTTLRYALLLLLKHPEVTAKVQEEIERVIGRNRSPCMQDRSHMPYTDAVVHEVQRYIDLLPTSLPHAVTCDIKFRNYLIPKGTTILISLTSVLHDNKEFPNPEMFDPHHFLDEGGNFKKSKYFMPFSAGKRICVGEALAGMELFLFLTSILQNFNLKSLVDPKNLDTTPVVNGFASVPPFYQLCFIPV
UniProt P10635, whole entry: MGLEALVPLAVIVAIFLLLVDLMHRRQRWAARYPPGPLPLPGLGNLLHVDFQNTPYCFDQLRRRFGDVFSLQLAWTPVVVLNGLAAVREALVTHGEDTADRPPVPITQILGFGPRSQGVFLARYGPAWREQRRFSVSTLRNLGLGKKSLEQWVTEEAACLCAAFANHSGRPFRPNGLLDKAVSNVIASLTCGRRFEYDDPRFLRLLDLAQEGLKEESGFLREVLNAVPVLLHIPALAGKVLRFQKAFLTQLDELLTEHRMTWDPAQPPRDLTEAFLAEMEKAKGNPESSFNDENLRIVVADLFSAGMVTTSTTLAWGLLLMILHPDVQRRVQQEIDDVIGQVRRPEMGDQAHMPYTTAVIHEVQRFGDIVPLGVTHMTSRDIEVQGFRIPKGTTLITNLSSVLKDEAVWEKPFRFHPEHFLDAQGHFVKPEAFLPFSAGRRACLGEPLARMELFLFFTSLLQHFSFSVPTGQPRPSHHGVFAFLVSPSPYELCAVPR
UniProt P33261, whole entry: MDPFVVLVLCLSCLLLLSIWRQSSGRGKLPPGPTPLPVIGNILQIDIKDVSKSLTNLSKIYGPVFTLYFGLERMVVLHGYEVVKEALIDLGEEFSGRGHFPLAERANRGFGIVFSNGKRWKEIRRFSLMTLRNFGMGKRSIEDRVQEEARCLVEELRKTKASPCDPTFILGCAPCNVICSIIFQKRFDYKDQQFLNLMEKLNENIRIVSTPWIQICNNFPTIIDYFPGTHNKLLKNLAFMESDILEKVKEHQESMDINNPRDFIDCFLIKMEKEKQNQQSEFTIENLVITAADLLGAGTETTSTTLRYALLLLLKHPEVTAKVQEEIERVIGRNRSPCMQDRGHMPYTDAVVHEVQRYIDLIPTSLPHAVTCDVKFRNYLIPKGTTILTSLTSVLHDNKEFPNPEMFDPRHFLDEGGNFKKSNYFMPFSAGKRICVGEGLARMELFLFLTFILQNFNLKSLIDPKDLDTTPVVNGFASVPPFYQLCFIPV
UniProt P08684, whole entry: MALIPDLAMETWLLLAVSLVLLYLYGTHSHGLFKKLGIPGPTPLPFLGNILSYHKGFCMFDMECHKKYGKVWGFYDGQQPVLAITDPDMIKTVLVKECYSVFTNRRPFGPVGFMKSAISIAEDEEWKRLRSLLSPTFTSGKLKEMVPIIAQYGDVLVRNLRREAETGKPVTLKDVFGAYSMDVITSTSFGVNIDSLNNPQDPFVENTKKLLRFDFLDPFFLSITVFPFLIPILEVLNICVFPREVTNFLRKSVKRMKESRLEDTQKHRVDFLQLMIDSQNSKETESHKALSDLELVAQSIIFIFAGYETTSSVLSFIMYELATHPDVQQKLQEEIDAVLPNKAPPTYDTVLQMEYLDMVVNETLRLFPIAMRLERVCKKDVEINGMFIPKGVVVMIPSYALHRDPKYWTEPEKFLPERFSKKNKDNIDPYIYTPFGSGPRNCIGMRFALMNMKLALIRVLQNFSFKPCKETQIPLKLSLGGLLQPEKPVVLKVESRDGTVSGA

Experiments:
[1] = target: Cytochrome P450 1A2 (Homo sapiens, UniProt P05177); test: Inhibition of human CYP1A2; type: ADME
[2] = target: Cytochrome P450 2C9 (Homo sapiens, UniProt P11712); test: Inhibition of human CYP2C9
[3] = target: Cytochrome P450 2D6 (Homo sapiens, UniProt P10635); test: Inhibition of human CYP2D6
[4] = target: Cytochrome P450 2C19 (Homo sapiens, UniProt P33261); test: Inhibition of human CYP2C19
[5] = target: Cytochrome P450 3A4 (Homo sapiens, UniProt P08684); test: Inhibition of human CYP3A4

Measured: IC50

CC1(C)c2nc(-c3ccc(F)cc3)c(Nc3ccc(F)cc3)n2CCN1C(=O)CN [GANAPLACIDE]
> 6 µM: all assays above
